Measured affinities in a library of Ab-14 light chain variants

Target peptide (SARS-CoV-2 spike, HR2 region): PDVDLGDISGINAS

Ab-14 is the parent antibody, in scFv form: VH, then three GGGGS repeats, then VL. The heavy chain is unchanged in all variants.
VH: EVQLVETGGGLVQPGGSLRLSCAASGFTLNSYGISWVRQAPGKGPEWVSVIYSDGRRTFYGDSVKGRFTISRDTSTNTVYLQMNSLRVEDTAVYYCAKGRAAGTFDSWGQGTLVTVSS
VL: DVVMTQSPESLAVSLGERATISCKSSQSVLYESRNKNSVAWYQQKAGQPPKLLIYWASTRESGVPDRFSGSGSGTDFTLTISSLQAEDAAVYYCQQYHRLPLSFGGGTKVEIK

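The variants were designed computationally from a first round of random CDR variants and then made and measured. Group labels follow the data file (Ctrl: baseline library sampled from a position-specific scoring matrix, with some repeated check sequences; En: ensemble of fine-tuned language models; GP: Gaussian process model; GPLM: also part of the Gaussian process libraries; HC: hill climbing; Gen: genetic algorithm; Gibbs: Gibbs sampling; a sequence that several methods proposed may carry one label only). The scFvs were displayed on barcoded MATa yeast, the peptide on MATalpha yeast. Binding brings cells together so that they mate, and sequencing counts the barcode pairs among the diploids. A regression on co-assayed BCL2-family reference pairs converts the normalised counts of each replicate to an apparent Kd. Mating was done six times.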

Variants are written as CDR1, CDR2 and CDR3 of the light chain (limits as in the source). Parent: KSSQSVLYESRNKNSVA, WASTRES, QQYHRLPLS. Each Kd is an estimate from the mating assay, the geometric mean of the replicates in which the pair was seen; lower is stronger. As a blank, each scFv also met three strains without target: over all light chain designs, 4% of these pairings were detected, typically at 430 nM and seldom below 38 nM. The range of this assay differs from that of the first round, and the authors advise against merging the two. In the paper, a design with two or fewer of six values counts as a poor binder.

| CDR-L1 | CDR-L2 | CDR-L3 | group | Kd | detected |
|---|---|---|---|---|---|
| IISQSVLGEYHNKNSVA | QTSERGQ | QQYDRLPLS | En_HC | 4.0 nM | 6 of 6 |
| KLDQSNLYESRNKNSVA | GASTRES | QQYHRLPLS | GP_HC | 460 pM | 6 of 6 |
| KMSQSVLYESRNKNSVA | WASTRES | QQYHRLPLM | Ctrl | 6.5 nM | 6 of 6 |
| HMSMLTLGGVRQRNSVA | QMTTREN | QQYDHLPLS | En_Gen | 10 nM | 6 of 6 |
| KSSGSVLYESRNKNSVA | QAYTRFS | QQYHRLPLS | Ctrl | 19 nM | 3 of 6 |
| KLSQSVLYESRNKNSVA | NGSTREM | QQYHRLPLS | GP_Gen | 1.7 nM | 6 of 6 |
| TISQSALMTGLNRNSVA | QAEERLE | QQYNRLPLS | En_HC | 5.9 nM | 6 of 6 |
| KSGCGVLYEDRNKNSVA | GASTRES | QQYHRLPLS | GP_HC | 400 pM | 6 of 6 |
| KLSQSHLYEERNKNNVA | SASTREW | QQYHRLPLS | GP_Gibbs | 390 pM | 6 of 6 |
| KITDKFLGLGNGRQNIA | HAMVAVE | QQYHQLPLA | En_Gibbs | 11 nM | 6 of 6 |
| KSSQSVLYESRNLNSVA | HASTRES | QQYHRLPLS | Ctrl | 4.6 nM | 6 of 6 |
| TISQSTYIESFNKNNVA | QTSTREE | QDYDRLPLS | En_HC | 55 nM | 6 of 6 |
| IVSQLMMWGMHAKNSIA | EAVTRLN | QQYDRLPLI | En_Gen | 170 nM | 2 of 6 |
| KLPQSVLYESRNKNSVA | EASTREV | QQYHRLPLS | GP_Gen | 390 pM | 6 of 6 |
| HMSMLTLQGQRYRNAVA | QMTTREN | QQYDRLPLI | En_Gen | 110 nM | 6 of 6 |
| KFSQSVLYESRNKNSVA | EASTRES | QDYHRLPLS | GP_Gen | 1.2 nM | 6 of 6 |
| KSSQSVVGESRNKNSVA | GASTRES | QQYHRLPLS | Ctrl | 4.4 nM | 6 of 6 |
| KFSQKVLYEARTKNSVA | NASTRES | QQYHRLPLS | GP_HC | 2.0 nM | 6 of 6 |
| KLPAWQGYESRNKASVA | QASTRES | QQYHRLPLS | GP_Gibbs | 1.9 nM | 6 of 6 |
| KMSQSVLYESENKNSVA | WASQRFS | QQYHRLPLS | Ctrl | 5.3 nM | 6 of 6 |
| KVSEFMRGLMQRQDSIA | DNVTRNN | QQYDRLPLS | En_Gen | 15 nM | 6 of 6 |
| ALGDVTRMESNKKNSIA | DMSNRES | QQYHRLPLS | En_HC | 16 nM | 6 of 6 |
| KVSQSQLYEWRNMNSVA | NASTREM | QQYHRLPLI | GP_Gibbs | 1.8 nM | 6 of 6 |
| MISDLTMYGSRNVSSVA | DLSTRGS | QQYDRLPLS | En_HC | 31 nM | 6 of 6 |
| HSSPSVLYESRNGNSVA | NASTRES | QQYHRLPLS | GP_HC | 960 pM | 6 of 6 |
| KWSFLVLGESRNKNSVA | DASTRES | QQYHRLPLS | GP_Gibbs | 900 pM | 6 of 6 |
| KLLQTVRNGRYNRNNVA | HMTMRED | QQYFRLPLS | En_HC | 120 nM | 5 of 6 |
| HLSQSWEGEERNKNSVA | SASTREQ | QQYHRLPLS | GP_Gibbs | 5.4 nM | 6 of 6 |
| KLSQSVLYESRNKFSVA | NASTRES | QQYHRLPLS | GP_Gen | 880 pM | 6 of 6 |
| MLSQMWALGMKVSNSVA | QASMRFN | QQYNRLPLI | En_Gen | 190 nM | 2 of 6 |
| KSSQSELYESRNKNSVA | WASTRES | QQYHGLPLS | Ctrl | 500 nM | 3 of 6 |
| KITATMRFEQKASNNIA | EVTLRSK | QQYYRLPLS | En_Gen | 10 nM | 6 of 6 |
| TVTQMAMTGMMSKRSVA | NAETREY | QQYHRLPLI | En_Gen | 22 nM | 3 of 6 |
| RVQMGDQPGKTARNNIA | DGEEGYR | QQYVRLPLS | En_Gibbs | 2.9 nM | 6 of 6 |
| HMSESEHGHNAGVGNMA | NATESTE | QQYMHLPLS | En_Gibbs | 3.5 nM | 6 of 6 |
| KIQWYPLEFRGTIQAVA | EAATRYN | QQYMHLPLS | En_Gibbs | 32 nM | 5 of 6 |
| HMSMLTLSGMRHRNSVA | QMTTREN | QQYDRLPLS | En_Gen | 130 nM | 5 of 6 |
| KLGDMVHTLSRNKNSIA | DMRTRES | QQYMRLPLS | En_HC | 1.1 nM | 6 of 6 |
| KLSQSDLYESRNKNSVA | DASTRES | QDYHRLPLS | GP_Gen | 680 pM | 6 of 6 |
| MISQIMNMGQFAINSVA | QASMRCN | QQYDRLPLM | En_Gen | 100 nM | 4 of 6 |
| ILDQSHLYESRNKNSVA | NANTREQ | QQYHRLPLS | GP_Gibbs | 710 pM | 6 of 6 |
| KSSGSWLYESRNKNSVA | GASTREV | QQYHRLPLS | GP_HC | 4.4 nM | 6 of 6 |
| KSSQSVLYESRVKNSVA | GASTREK | QQYWRLPLS | Ctrl | 22 nM | 5 of 6 |
| QFDLFENYQGMQGASIA | GETNRHT | QQYQKLPLS | En_Gibbs | 11 nM | 6 of 6 |
| HFSGGMNQGSSMEHNIA | EGTYAEE | QQYARLPLQ | En_Gibbs | 10 nM | 6 of 6 |
| MISQVMNTLTREGNNVA | DLTNREK | QQYFRLPLS | En_Gen | 28 nM | 6 of 6 |
| KITQMVNGESHNKNSIA | QMTTREG | QQYHRLPLS | En_HC | 14 nM | 6 of 6 |
| TITEQGFEHMGNRNSVA | EAEHKQY | QQYAHLPLL | En_Gibbs | 2.2 nM | 6 of 6 |
| KLAQSVLYESRNKNSVA | DASTRES | QQYHRLPLS | GP_Gen | 860 pM | 6 of 6 |
| KSSQSVLYENRNKNSVA | WASTRES | EQYHRLPLS | Ctrl | 2.6 µM | 1 of 6 |
| QIYAVQDMTSKNSNNVA | EQSTREN | QQYHRLPLS | En_HC | 4.1 nM | 6 of 6 |
| KSGQGVLYESRNKNNVA | GASTRES | QQYHRLPLS | GPLM_HC | 410 pM | 6 of 6 |
| KLMEQALYESRNKNSVA | QASTRED | QQYHRLPLS | GP_Gibbs | 1.2 nM | 6 of 6 |
| KLDQKNRWNGMANYNVA | DSNERVD | QQYHRLPLI | En_Gibbs | 7.1 nM | 6 of 6 |
| KLSQSDLYESRNSNSVA | DASTRES | QQYHRLPLS | GP_Gen | 1.5 nM | 6 of 6 |
| KLSVSYLFESQEKNSIA | ENSTRES | QHYHRLPLS | En_HC | 250 nM | 1 of 6 |
| KFSQSVLYTSRNCNSVA | AASTRES | QQYHRLPLS | Ctrl | 4.1 nM | 6 of 6 |
| KLSQSDLYESRNKNSVA | NASQRES | QDYHRLPLS | GP_Gen | 830 pM | 6 of 6 |
| KISQSVLYESRNKNSVA | GASTRES | QQYHRLPLS | GP_Gen | 280 pM | 6 of 6 |
| KLANRMYQGGLVQANVA | EAKELWE | QQYYHLPLA | En_Gibbs | 5.9 nM | 6 of 6 |

The closing 5 entries, repeated:

CDR-L1	CDR-L2	CDR-L3	group	Kd	detected
KLSVSYLFESQEKNSIA	ENSTRES	QHYHRLPLS	En_HC	250 nM	1 of 6
KFSQSVLYTSRNCNSVA	AASTRES	QQYHRLPLS	Ctrl	4.1 nM	6 of 6
KLSQSDLYESRNKNSVA	NASQRES	QDYHRLPLS	GP_Gen	830 pM	6 of 6
KISQSVLYESRNKNSVA	GASTRES	QQYHRLPLS	GP_Gen	280 pM	6 of 6
KLANRMYQGGLVQANVA	EAKELWE	QQYYHLPLA	En_Gibbs	5.9 nM	6 of 6

From the AlphaSeq antibody data of Li et al. 2023 (doi:10.1038/s41467-023-39022-2), copy in the FLAb collection.